Compound activity as filed in PubChem BioAssay.
FGF22 binding: binders of recombinant human FGF22 by thermal shift; Q9HCT0; SYPRO orange fluorescence; percent of sucrose octasulfate shift, DMSO zero; activity (Tm shift, normalised), % at 9.99 µM; 340,000 compounds, 1.5% hits;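 active means mean Tm shift, scaled 0 neutral to 100 positive control, at about 1.3% or above, every replicate too, limit read from the data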
Yeast UUG start-1: yeast start codon fidelity modulation | S. cerevisiae UUG-firefly luciferase reporter, luminescence/redox ratio | activity score, % at 18.7 µM | 0.13% of 350,000 active | AID 602363;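 active means replicate mean at a twofold rise or more, about +100% in these data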;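 further: firefly luciferase made from a UUG start codon reports start codon fidelity; reporter light over untreated wells divided by growth signal over untreated wells; some hits fall short of that in this replicate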
ERp5 block: inhibitors of human ERp5; Q15084; ERp5 insulin aggregation, absorbance 650 nm, 90 min; inhibition, % at 9.99 µM; 350,000 compounds, 0.05% hits;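 active means mean replicate inhibition above about 25%, with every replicate also reaching it, limit read from the data, passing the limit was not always enough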
PDI turbidity: blocks human protein disulfide isomerase activity. P07237. PDI insulin aggregation turbidity, A650, 90 min. inhibition, % at 10 µM. 350,000 compounds, 0.052% hits. AID 588391;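 active means mean inhibition across replicates of 30% or more, whatever share of single replicates reach that level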
S100A4 inh HTS: inhibitors of human S100A4 binding to myosin IIA peptide; S100A4/TAMRA-MyoIIA peptide fluorescence polarization; inhibition, % at 10.7 µM; 360,000 compounds, 0.14% hits; AID 652163;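 active means mean inhibition of at least 70% across replicates, with every replicate also reaching that level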
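Material: S100A4 monomer protein / Buffer or medium: 50 mM HEPES pH 7.2, 10 mM CaCl2, 100 mM KCl / Times: 5 min incubation before reading / Benchmarks: neutral control DMSO, positive control TFP / Reagent: labelled myosin peptide probe, 5 nM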
SIRT5 block: sirtuin-5 (human) deacylase inhibition; Purified SirT5, succinyl-peptide AMC, trypsin-coupled fluorescence; Q9NXA8; 330,000 compounds, 1.1% hits; inhibition, % at 15 µM; in the data active means inhibition above about 15%
Yeast UUG start-2: alters UUG start codon use in yeast | shares compounds with Yeast UUG start-1 | S. cerevisiae UUG-start firefly luciferase, luminescence, 4 h; 100% means double the DMSO signal | activation, % at 38 µM | 540 tested, under 10 active;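 active means signal increase whose fitted curve reaches an absolute level of 40 at a concentration under 10 µM; inactive means activity opposite to the expected increase, or the rest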
* = called active by the depositor; i = inactive; nt = no result given. Hits are enriched below; roughly 2.2% of the tested compounds scored in any of these assays.

Letters: A = FGF22 binding; B = Yeast UUG start-1; C = ERp5 block; D = PDI turbidity; E = S100A4 inh HTS; F = SIRT5 block; G = Yeast UUG start-2
Cc1noc(C)c1S(=O)(=O)N(C)C[C@H]1OCCCC[C@H](C)Oc2ccc(NC(=O)Nc3ccc4c(c3)OCO4)cc2C(=O)N([C@@H](C)CO)C[C@@H]1C
  A: 0 | B: -11 | C: nt | D: nt | E: nt | F: nt | G: nt
CN(C)c1ccc(/C=C/c2ccc3ccccc3[n+]2C)cc1
  A: nt | B: 127* | C: nt | D: -3 | E: nt | F: nt | G: 11
COC(=O)C[C@@H]1C[C@H]2c3cc(NC(=O)Nc4ccc(C(F)(F)F)cc4)ccc3O[C@H]2[C@@H](CO)O1
  A: 0 | B: -17 | C: -6 | D: nt | E: 18 | F: 2 | G: nt
Cn1nc(-c2ccc(C(=O)NC3CCCCC3)cc2)c2ccccc2c1=O
  A: 0 | B: -26 | C: 0 | D: 2 | E: -21 | F: 1 | G: nt
Cn1nc(C(=O)NC2CCCC2)c2ccccc2c1=O
  A: 0 | B: -13 | C: -3 | D: 6 | E: -5 | F: 1 | G: nt
Cn1nc(CC(=O)NC2CCCCCC2)c2ccccc2c1=O
  A: 0 | B: -35 | C: 5 | D: 14 | E: -6 | F: -1 | G: 11
Cn1nc(CC(=O)NC2CCCCC2)c2ccccc2c1=O
  A: nt | B: nt | C: nt | D: 19 | E: nt | F: nt | G: -4
CCCNC(=O)N1[C@H](CO)[C@@H](c2ccccc2)C12CN(C(=O)CC1CC1)C2
  A: 0 | B: nt | C: -1 | D: nt | E: 6 | F: 1 | G: nt
CO[C@H]1CN(C)C(=O)c2ccc(NS(C)(=O)=O)cc2OC[C@H](C)NC[C@H]1C
  A: 0 | B: -24 | C: -1 | D: nt | E: -8 | F: -1 | G: nt
COc1ccccc1S(=O)(=O)N1[C@@H]2CNC[C@H]1[C@H]2c1ccc(-c2ccccc2C)cc1
  A: nt | B: nt | C: 6 | D: nt | E: -2 | F: 2 | G: nt
COc1ccc2oc(C(=O)OCC(=O)N(C)Cc3ccccc3)c(C)c2c1
  A: 0 | B: 11 | C: -1 | D: 5 | E: -5 | F: -7 | G: 10
COc1ccc2oc(C(=O)OCC(=O)N(Cc3ccccc3)C(C)C)c(C)c2c1
  A: nt | B: nt | C: 0 | D: 13 | E: 1 | F: 1 | G: nt
CCOc1ccc2oc(C(=O)OCC(=O)NCc3ccc(OC)cc3)c(C)c2c1
  A: 0 | B: -15 | C: 3 | D: -12 | E: -11 | F: -2 | G: nt
COc1ccc2oc(C(=O)OCC(=O)NC(C)c3ccccc3)c(C)c2c1 (stereo not drawn)
  A: 0 | B: -3 | C: 12 | D: -1 | E: -14 | F: 0 | G: 11
COc1ccc2oc(C(=O)OCC(=O)NCc3ccc(OC)c(OC)c3)c(C)c2c1
  A: 0 | B: -3 | C: 3 | D: -4 | E: -1 | F: -6 | G: 6
COc1ccc(S(=O)(=O)Nc2ccc3c(c2)C(=O)N([C@@H](C)CO)C[C@@H](C)[C@H](CN(C)C(=O)NC2CCCCC2)OCCCC[C@@H](C)O3)cc1
  A: 0 | B: -6 | C: -9 | D: nt | E: 12 | F: 3 | G: nt
C[C@@H]1CN([C@@H](C)CO)S(=O)(=O)c2ccc(-c3cncnc3)cc2O[C@@H]1CN(C)C(=O)c1ccc2c(c1)OCO2
  A: 0 | B: -3 | C: -2 | D: nt | E: 5 | F: -3 | G: nt
CCCC#Cc1cnc2c(c1)C(=O)N([C@H](C)CO)C[C@@H](C)[C@@H](CN(C)C(=O)C1CCCCC1)O2
  A: nt | B: 52 | C: nt | D: nt | E: nt | F: nt | G: nt
COc1ccc2c3c([nH]c2c1)[C@H](CO)N(C(=O)C1CCOCC1)CC31CCN(C(=O)NC(C)C)CC1
  A: 0 | B: nt | C: 8 | D: nt | E: -11 | F: -4 | G: nt
C[C@@H]1CN([C@@H](C)CO)C(=O)c2cc(NC(=O)Nc3ccc(F)cc3)ccc2O[C@@H]1CN(C)S(=O)(=O)c1cn(C)cn1
  A: 0 | B: 4 | C: -2 | D: nt | E: 6 | F: 5 | G: nt
CCN(C[C@@H]1[C@@H](c2ccccc2)[C@@H](CO)N1C(C)=O)C(=O)c1ccccn1
  A: 0 | B: -18 | C: -3 | D: nt | E: 10 | F: 9 | G: nt
CCN(C[C@H]1[C@@H](c2ccccc2)[C@@H](CO)N1C(C)=O)C(=O)c1ccccn1
  A: 0 | B: 127* | C: 3 | D: nt | E: 8 | F: 2 | G: i
C/C=C/c1ccc(C2[C@@H]3CN(S(=O)(=O)c4ccccc4C)C[C@H]2N3)cc1 (stereo partly drawn)
  A: nt | B: nt | C: 0 | D: nt | E: -10 | F: 3 | G: nt
CCn1c(CCNC(=O)c2ccc(OC)cc2)nnc1SCC(=O)Nc1ccccc1F
  A: 0 | B: 316* | C: 3 | D: 11 | E: 2 | F: -3 | G: 1
CCOc1ccc(NC(=O)CSc2nnc(CCNC(=O)c3ccc(OC)cc3)n2CC)cc1
  A: nt | B: -24 | C: nt | D: -2 | E: nt | F: nt | G: nt

Reprinted at random: two compounds from above, in no set order.
Letters: A = FGF22 binding; B = Yeast UUG start-1; C = ERp5 block; D = PDI turbidity; E = S100A4 inh HTS; F = SIRT5 block; G = Yeast UUG start-2
CCN(C[C@H]1[C@@H](c2ccccc2)[C@@H](CO)N1C(C)=O)C(=O)c1ccccn1
  A: 0 | B: 127* | C: 3 | D: nt | E: 8 | F: 2 | G: i
CN(C)c1ccc(/C=C/c2ccc3ccccc3[n+]2C)cc1
  A: nt | B: 127* | C: nt | D: -3 | E: nt | F: nt | G: 11

Going on with the list.
Letters: A = FGF22 binding; B = Yeast UUG start-1; C = ERp5 block; D = PDI turbidity; E = S100A4 inh HTS; F = SIRT5 block; G = Yeast UUG start-2
O=C(NCC1OCCc2ccccc21)c1ccco1 (stereo not drawn)
  A: nt | B: 323* | C: nt | D: -5 | E: nt | F: nt | G: 2
O=C(CCc1ccccc1)NCC1OCCc2ccccc21 (stereo not drawn)
  A: 0 | B: -3 | C: -2 | D: -17 | E: -9 | F: -2 | G: nt
CCN(CC)c1ccc(-c2nc3cnccn3c2NC2CCCC2)cc1
  A: nt | B: 181* | C: nt | D: 9 | E: nt | F: nt | G: 3
CCN1CCN(CCC2Oc3cc([N+](=O)[O-])ccc3NC2=O)CC1 (stereo not drawn)
  A: 0 | B: -21 | C: 2 | D: 2 | E: -3 | F: 2 | G: 5
O=C1Nc2ccc([N+](=O)[O-])cc2OC1CCN1CCN(Cc2ccccc2)CC1 (stereo not drawn)
  A: 0 | B: nt | C: 7 | D: -4 | E: -7 | F: 1 | G: 8
O=C1Nc2ccc([N+](=O)[O-])cc2OC1CCN1CCN(Cc2ccc3c(c2)OCO3)CC1 (stereo not drawn)
  A: 0 | B: 611* | C: 4 | D: 2 | E: 2 | F: 1 | G: 6
COc1ccc(N2CCN(CCC3Oc4cc([N+](=O)[O-])ccc4NC3=O)CC2)cc1 (stereo not drawn)
  A: 0 | B: -19 | C: 0 | D: 4 | E: -3 | F: 0 | G: nt
COc1ccc(CNC(=O)Cc2nn(C)c(=O)c3ccccc23)cc1
  A: nt | B: nt | C: nt | D: 0 | E: nt | F: nt | G: nt
COc1ccc(OC)c(NC(=O)Cc2nn(C)c(=O)c3ccccc23)c1
  A: nt | B: -11 | C: nt | D: -2 | E: nt | F: nt | G: 10
COc1cc(NC(=O)Cc2nn(C)c(=O)c3ccccc23)cc(OC)c1OC
  A: 0 | B: 3 | C: -15 | D: -5 | E: 1 | F: -4 | G: nt
O=C(CCl)Nc1cccc2ncccc12
  A: nt | B: -10 | C: nt | D: 6 | E: nt | F: nt | G: nt
COc1ccccc1NC(=O)Cn1cc(C(=O)c2ccco2)c2ccccc21
  A: 0 | B: 4 | C: -2 | D: -4 | E: -6 | F: -1 | G: nt
Cn1nc(CC(=O)Nc2cccc3ncccc23)c2ccccc2c1=O
  A: nt | B: -13 | C: nt | D: 3 | E: nt | F: nt | G: -4
COc1ccc(OC)c(NC(=O)Cn2cc(C(=O)c3ccco3)c3ccccc32)c1
  A: nt | B: 134* | C: nt | D: -3 | E: nt | F: nt | G: 13
COc1ccc(N2CCN(C(=O)Cc3nn(C)c(=O)c4ccccc34)CC2)cc1
  A: nt | B: -20 | C: nt | D: 10 | E: nt | F: nt | G: 10
CN1CCN(C(=O)C[C@@H]2CC[C@H]3[C@@H](COC[C@@H](O)CN3CC3CC3)O2)CC1
  A: 0 | B: nt | C: -3 | D: nt | E: 7 | F: -4 | G: nt
O=C(N[C@@H]1CC[C@H](CCNS(=O)(=O)c2ccccc2)O[C@@H]1CO)c1cccc(F)c1
  A: 0 | B: 1 | C: 0 | D: nt | E: 9 | F: 12 | G: nt
COc1ccc(NC(=O)N(C)C[C@@H]2Oc3c(NS(=O)(=O)c4ccc(F)cc4)cccc3C(=O)N([C@H](C)CO)C[C@H]2C)cc1
  A: 0 | B: -7 | C: nt | D: nt | E: nt | F: nt | G: nt
Cc1nn(CC(=O)N2CCN(c3ccccc3)CC2)c(=O)c2ccccc12
  A: 0 | B: -24 | C: 0 | D: -1 | E: -2 | F: 5 | G: 1
Cc1nn(CC(=O)O)c(=O)c2ccccc12
  A: nt | B: -22 | C: nt | D: 9 | E: nt | F: nt | G: nt
